Results taken from BindingDB's records for doi:10.1021/jm00079a024 (Roche Products, 1992).

Protein sequences, listed by entry. Tags and fused reporters are not part of them.
UniProt P68403, whole entry: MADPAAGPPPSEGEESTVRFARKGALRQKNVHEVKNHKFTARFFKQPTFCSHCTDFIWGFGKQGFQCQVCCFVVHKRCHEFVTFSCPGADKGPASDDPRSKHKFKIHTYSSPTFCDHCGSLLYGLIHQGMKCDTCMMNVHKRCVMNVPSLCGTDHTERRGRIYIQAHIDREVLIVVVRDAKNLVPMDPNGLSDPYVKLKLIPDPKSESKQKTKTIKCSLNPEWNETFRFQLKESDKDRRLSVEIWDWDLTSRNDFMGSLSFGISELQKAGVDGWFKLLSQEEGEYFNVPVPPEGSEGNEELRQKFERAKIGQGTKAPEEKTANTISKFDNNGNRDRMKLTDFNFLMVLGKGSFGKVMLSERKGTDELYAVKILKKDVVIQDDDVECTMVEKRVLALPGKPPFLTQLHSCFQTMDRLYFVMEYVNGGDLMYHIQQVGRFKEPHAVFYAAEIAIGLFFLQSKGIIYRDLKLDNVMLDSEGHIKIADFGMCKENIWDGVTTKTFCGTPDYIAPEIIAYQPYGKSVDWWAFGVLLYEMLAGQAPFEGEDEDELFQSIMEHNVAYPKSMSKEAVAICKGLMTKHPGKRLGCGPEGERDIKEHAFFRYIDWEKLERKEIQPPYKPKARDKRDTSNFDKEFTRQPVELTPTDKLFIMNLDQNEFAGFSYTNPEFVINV

Target: Protein kinase C beta type (Rattus norvegicus, UniProt P68403)
Experiment: PKC assay
Conditions: pH 7.5; 30 °C
Procedure: The activity of PKC, activated by phosphatidylerine and Ca2+, is measured by its ability to transfer phosphate from [gamma-32P]ATP to lysine-rich histone.

## COC(=O)[C@]1(O)C[C@@H]2O[C@@]1(C)n1c3ccccc3c3c4c(c5c6ccccc6n2c5c31)C(=O)NC4 [methyl (15R,16S,18S)-16-hydroxy-15-methyl-3-oxo-28-oxa-4,14,19-triazaoctacyclo[12.11.2.1^{15,18}.0^{2,6}.0^{7,27}.0^{8,13}.0^{19,26}.0^{20,25}]octacosa-1(26),2(6),7(27),8(13),9,11,20(25),21,23-nonaene-16-carboxylate]
  IC50: 470 nM
